Data taken from PMC11134845.

Target: HSV-1F gB ectodomain (recombinant glycoprotein B of Herpes simplex virus 1 strain F, aa 30-729) (Herpes simplex virus 1 (strain F)) (UniProt P06436)
Experiment: cryo-EM structure

**Q.** How did the stoichiometry N turn out when “HSV-1F gB ectodomain (recombinant glycoprotein B of Herpes simplex virus 1 strain F, aa 30-729) (from UniProt P06436 30-729) (domain or fragment)” was run?
**A.** 3
